# Test results reported in PubChem BioAssay AID463115 (University of Pittsburgh Molecular Library Screening Center, 2010).
# Chains of the proteins cited; added tags and fusions are not shown.
# UniProt P09958, whole entry, looked up: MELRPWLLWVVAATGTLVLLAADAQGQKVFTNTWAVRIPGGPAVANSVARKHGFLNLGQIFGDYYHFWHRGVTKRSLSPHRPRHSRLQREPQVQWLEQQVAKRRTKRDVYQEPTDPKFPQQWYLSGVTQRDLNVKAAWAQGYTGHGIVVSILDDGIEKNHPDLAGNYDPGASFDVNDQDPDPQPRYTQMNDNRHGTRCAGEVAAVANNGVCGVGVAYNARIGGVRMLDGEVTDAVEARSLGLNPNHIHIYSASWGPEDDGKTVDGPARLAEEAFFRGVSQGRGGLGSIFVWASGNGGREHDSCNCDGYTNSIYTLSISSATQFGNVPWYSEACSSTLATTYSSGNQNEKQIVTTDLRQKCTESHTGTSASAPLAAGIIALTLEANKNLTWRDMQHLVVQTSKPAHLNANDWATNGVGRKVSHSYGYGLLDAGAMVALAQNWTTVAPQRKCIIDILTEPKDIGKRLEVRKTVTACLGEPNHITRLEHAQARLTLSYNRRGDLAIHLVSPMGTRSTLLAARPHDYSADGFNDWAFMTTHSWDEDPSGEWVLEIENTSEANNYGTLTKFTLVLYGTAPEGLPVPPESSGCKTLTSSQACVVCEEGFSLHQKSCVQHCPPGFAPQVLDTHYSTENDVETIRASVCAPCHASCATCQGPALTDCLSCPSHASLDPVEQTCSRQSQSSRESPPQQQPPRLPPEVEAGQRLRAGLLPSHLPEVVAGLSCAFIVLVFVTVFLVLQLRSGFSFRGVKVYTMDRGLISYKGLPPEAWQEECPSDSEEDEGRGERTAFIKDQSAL
# This is a selection; strong and weak results do not stand in their true shares. Calls of active or inactive are those of the source. Cut-off read from the data, not from the text of the source: active = inhibition above about 25%; inactive = the rest.
# Target: Furin (Homo sapiens) (UniProt P09958)
# Assay: furin protease activity blockers – biochemical, fluorescence intensity, primary screen (AID 463115)
# Settings: purified furin, fluorogenic substrate cleavage, active compounds read high; at 30 µM unless noted
row,Structure (SMILES),inhibition
1,CS(=O)(=O)c1cc([N+](=O)[O-])c2no[n+]([O-])c2c1,inactive: 4.79%
2,O=C(O)COc1ccc([As](=O)(O)O)cc1[N+](=O)[O-],inactive: -9.79%
3,Nc1ccccc1[As](=O)(O)c1ccccc1,inactive: -19.9%
4,ClCCSc1nnc(-c2cccnc2)o1,inactive: -19.1% [at 20 µM]
5,CC(C)c1ccc(OP(=O)(Nc2ccccn2)Oc2ccccc2F)cc1 (stereo not drawn),inactive: -5.03%
6,O=[N+]([O-])c1cc([N+](=O)[O-])c(-c2ccn[nH]2)s1,inactive: -8.66%
7,CCN(CC)C(=S)SC(NC=O)C(Cl)(Cl)Cl (stereo not drawn),inactive: -21.1% [at 20 µM]
8,CC(C)NC(=O)NP(=O)(Oc1ccccc1)Oc1ccccc1,inactive: -29.7%
9,C[As](=O)(O)c1cccc(C(=O)O)c1,inactive: -12.2%
10,O=[As](O)(c1ccc(O)cc1)c1ccccc1O,inactive: 0.371%
11,Cc1ccc(OP(=O)(Nc2ccc([N+](=O)[O-])cn2)Oc2ccc(C)cc2)cc1,inactive: -7.57%
12,Cc1ccc2nc3c(c(C)c2c1)CC(C(Cl)Cl)S3 (stereo not drawn),inactive: -9.76%
13,COc1ccc(N/C(=N/P(=O)(N2CCOCC2)N2CCOCC2)N2CCOCC2)cc1,inactive: -16.6%
14,Cc1c2c(nc3ccccc13)SC(C(Cl)Cl)C2 (stereo not drawn),inactive: -15.6%
15,Cc1cc(=O)[nH]c(N[N+](=O)[O-])n1,inactive: -21.9%
16,O=C(OC1CN2CCC1CC2)C12CC3CC(CC(C3)C1)C2 (stereo not drawn),inactive: -1.16%
17,COc1cc(I)ccc1[As](=O)(O)O,inactive: -18.2%
18,COc1ccc2nc(NP(=O)(c3ccccc3)c3ccccc3)sc2c1,inactive: -15%
19,CCOC(=O)c1ccc(NC(=O)C(C)(CCl)SC)cc1 (stereo not drawn),inactive: -28.6%
20,CCC(C)N(CC(C)C)C(=S)SC(NC(C)=O)C(Cl)(Cl)Cl (stereo not drawn),inactive: -6.21% [at 20 µM]
21,COP1(=S)c2c(C)nn(CCC#N)c2N=C(c2ccc(F)cc2)N1C (stereo not drawn),inactive: -22.5% [at 20 µM]
22,O=C(COc1ccccc1)OC1CN2CCC1CC2 (stereo not drawn),inactive: -11.7%
23,CCOC(=O)Nc1cccc([As](=O)(O)O)c1,inactive: -19.9%
24,Cc1cc(SC(NC=O)C(Cl)(Cl)Cl)ncn1 (stereo not drawn),inactive: -16.8%
25,O=P(Nc1ccccn1)(c1cccc2ccccc12)c1cccc2ccccc12,inactive: -24.2%
26,O=[N+]([O-])c1ccc(Nc2ccc(Oc3ccc([N+](=O)[O-])cc3[N+](=O)[O-])cc2)c([N+](=O)[O-])c1,inactive: -1.57%
27,CCOC(=O)Nc1ccc([As](=O)(O)O)c(O)c1,inactive: -26.5%
28,Cc1cc(SC(NC(=O)c2ccccc2)C(Cl)(Cl)Cl)nc(C(C)C)n1 (stereo not drawn),inactive: -17.3%
